## Antibody variant affinities, Ab-14 light chain, assay B

Target: peptide PDVDLGDISGINAS, taken from heptad repeat 2 (HR2) of SARS-CoV-2 spike.

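Phage display of a naive human antibody library on the peptide gave the parent. The variants were designed computationally from a first round of random CDR variants and then made and measured. Their group label is 14L_GP_HC (GP: Gaussian process model; HC: hill climbing; a sequence that several methods proposed may carry one label only). The assay is AlphaSeq: two haploid yeast populations carry antibody and antigen on their surface. Binding brings cells together so that they mate, and sequencing counts the barcode pairs among the diploids. Each replicate has its own calibration line, from reference interactions of the BCL2 family. The assay was run in six technical replicates.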

Parent scFv Ab-14: VH joined to VL by the linker GGGGSGGGGSGGGGS. Changes lie in the light chain CDRs alone.
VH: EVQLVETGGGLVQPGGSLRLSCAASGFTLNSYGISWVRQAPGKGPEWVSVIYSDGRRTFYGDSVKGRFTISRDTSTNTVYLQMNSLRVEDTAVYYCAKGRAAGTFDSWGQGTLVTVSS
VL: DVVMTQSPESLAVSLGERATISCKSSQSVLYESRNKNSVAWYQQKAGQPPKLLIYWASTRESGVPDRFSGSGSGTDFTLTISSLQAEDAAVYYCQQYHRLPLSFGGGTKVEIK

Positions count from residue 1 of the parent VL; S28V puts V in place of S.
Affinities are written as log10 Kd with Kd in nM; a lower number is a better binder.
A mean of the replicates is given; it leaves out those without a signal.
"ND" marks a missing value. The strain was present, yet no cells mated with the target were sequenced in that replicate, which points to weak or no binding.
The authors averaged sequences with at least three values out of six and counted those with two or fewer as poor binders.
Background: pairings of all light chain designs with three empty control strains gave a value in 4% of cases (median 2.64, 5th percentile 1.59). Values in that range, when seen in few replicates, are hard to tell from nonspecific mating. Also given: how often the same scFv was detected with the empty control strains, with their mean in brackets.
The parent sequence was in this pool as ten entries: three were never detected, three once, and four in most replicates, with averages from 0.34 to 2.37.
Values of this round are not directly comparable with the first-round values of the same sequences.

changes	replicates, log10 nM	log10 Kd (nM), mean	empty controls
S28V V29Y L30P W56G	-0.16 / -0.39 / -0.24 / -0.43 / -0.40 / -0.18	-0.30	1 of 18 (2.31)
V29W S38N W56G T59E	-0.50 / -0.47 / -0.65 / -0.73 / -0.60 / -0.56	-0.59	1 of 18 (2.76)
R34N W56H S62D	1.03 / 0.91 / 0.54 / 1.00 / 0.60 / 1.07	0.86	3 of 18 (2.77)
S26L Q27E V29W W56H S62Q	0.32 / 0.86 / 0.30 / 0.53 / 0.81 / 0.42	0.54	0 of 18
V29E K36F N37W W56N	0.80 / 0.62 / 0.62 / 0.79 / 0.45 / 0.50	0.63	0 of 18
S26Q V29Q K36F W56H S62D	0.07 / 0.31 / 0.21 / 0.29 / 0.34 / 0.51	0.29	0 of 18
S25F Y31F S33P W56D	-0.39 / -0.60 / -0.67 / -0.77 / -0.76 / -0.40	-0.60	1 of 18 (2.62)
L30D Y31P W56D	1.37 / 0.80 / 2.19 / 1.56 / 0.81 / 1.30	1.34	0 of 18
S25F S33T N35T W56N Q96W	0.95 / 0.85 / 0.98 / 1.20 / 1.36 / 0.98	1.06	2 of 18 (2.80)
K24R V29W W56G	0.26 / -0.22 / -0.17 / -0.04 / -0.30 / -0.10	-0.10	0 of 18
S25Q W56M H98E	1.28 / 0.87 / 0.95 / 0.59 / 0.68 / 0.97	0.89	0 of 18
V29Q W56G P101A	2.06 / ND / ND / ND / ND / ND	2.06	0 of 18
K24H Q27P L30E S38N W56N	0.07 / 0.05 / -0.08 / -0.29 / 0.03 / -0.05	-0.04	1 of 18 (2.80)
S25M S26E S28G V29D W56G	0.15 / -0.30 / -0.31 / -0.01 / -0.31 / -0.12	-0.15	1 of 18 (1.72)
S25L S26V Q27N V29T N35Q S62E	1.24 / 0.85 / 0.89 / 0.91 / 1.07 / 0.95	0.98	0 of 18
R34H W56N E61M	0.64 / 0.85 / 0.68 / 0.64 / 0.08 / 0.89	0.63	0 of 18
Q27W V29K R34G W56H S62D	1.03 / 0.79 / 0.22 / 0.26 / 0.99 / 0.69	0.66	0 of 18
S25F S28K S33G W56N	0.54 / 0.08 / 0.37 / 0.16 / 0.15 / 0.24	0.26	1 of 18 (2.75)
S25M S26E S28G N37G W56Q T59V	-0.32 / -0.65 / -0.64 / -0.26 / -0.12 / -0.33	-0.39	0 of 18
Q27I V29Y K36I W56E T59Q S62Q	0.43 / 0.19 / 0.22 / 0.17 / 0.39 / 0.07	0.24	1 of 18 (3.03)
S26P W56A S62D Q96S	0.94 / 0.82 / 0.65 / 0.91 / 0.81 / 1.02	0.86	2 of 18 (3.49)
S26D S28G V29W W56G	-0.13 / -0.20 / -0.31 / -0.41 / -0.55 / -0.23	-0.31	2 of 18 (2.70)
L30P Y31M K36A W56D	0.51 / 0.58 / 0.43 / 0.27 / 0.40 / 0.46	0.44	0 of 18
V29F S33D N35V W56G	0.33 / 0.70 / 0.42 / 0.36 / 0.56 / 0.60	0.49	2 of 18 (2.56)
Q27M V29W W56G T59F	0.20 / 0.10 / 0.01 / 0.12 / -0.01 / 0.04	0.07	2 of 18 (3.34)
S25F V29G N35T S38G W56N	0.36 / 0.05 / 0.16 / -0.08 / 0.13 / 0.27	0.15	0 of 18
V29W W56N S62V	-0.36 / -0.45 / -0.45 / -0.55 / -0.43 / -0.25	-0.42	1 of 18 (3.73)
S26Y Q27I V29Q W56E S103M	0.16 / 0.53 / 0.17 / -0.04 / 0.15 / 0.08	0.18	0 of 18
V29F W56G Q96E P101T	-0.14 / 0.25 / -0.53 / -0.29 / 0.13 / -0.08	-0.11	0 of 18
S25V N35M W56D E61C S103K	0.17 / 0.13 / 0.31 / 0.05 / 0.12 / 0.11	0.15	0 of 18
Q27I V29T W56E S103M	0.41 / 0.18 / 0.14 / 0.04 / 0.10 / 0.21	0.18	2 of 18 (2.96)
S25I S28K W56G	1.49 / 1.23 / 1.46 / 0.30 / -0.03 / 2.09	1.09	0 of 18
S25Q L30D W56D S103D	0.49 / 0.79 / 0.98 / 0.67 / 0.79 / 0.62	0.72	1 of 18 (1.47)
S25Q S28E Y31G W56D	0.74 / 0.57 / 0.49 / 0.73 / 0.73 / 0.78	0.68	1 of 18 (4.83)
S25V V29F K36V W56G E61D	-0.19 / -0.12 / -0.25 / -0.26 / -0.30 / 0.31	-0.14	1 of 18 (3.70)
S25L E32D R34Q W56N	0.53 / 0.22 / -0.06 / 0.43 / 0.17 / 0.30	0.27	1 of 18 (0.78)
S25Y V29Y L30M W56G	0.03 / 0.37 / 0.01 / -0.04 / 0.24 / 0.34	0.16	0 of 18
S25V S28E V29H W56D	-0.15 / -0.22 / -0.42 / -0.46 / -0.35 / -0.21	-0.30	0 of 18
S25A S26D S28G V29A W56G	-0.23 / -0.27 / -0.44 / -0.40 / -0.33 / -0.24	-0.32	2 of 18 (2.40)
S25Q R34V W56D S62V	0.58 / 0.83 / 0.64 / 1.02 / 0.70 / 1.06	0.81	1 of 18 (3.31)
S28E V29Y W56G	-0.18 / -0.16 / -0.45 / -0.53 / -0.52 / -0.27	-0.35	0 of 18
Q27I V29Y Y31G S33K W56E	0.73 / 1.18 / 0.36 / 1.24 / 1.50 / 0.22	0.87	0 of 18
S25V N35M W56E E61C S103E	0.57 / 0.26 / 0.31 / 0.17 / 0.46 / 0.61	0.40	0 of 18
S25L V29F W56G Q96A P101T	0.18 / -0.02 / 0.59 / 0.43 / -0.21 / 0.38	0.23	0 of 18
S25L S26D V29Q W56G	-0.42 / -0.46 / -0.73 / -0.56 / -0.55 / -0.38	-0.52	0 of 18
S25L S26R V29T K36P W56Q T59L	-0.07 / -0.07 / 0.77 / 0.20 / 0.00 / 0.06	0.15	1 of 18 (0.90)
S25V S26Y Q27P V29Y S38A W56Q	-0.20 / -0.38 / -0.40 / -0.56 / -0.51 / -0.17	-0.37	0 of 18
S25L S26R V29T K36Q	0.65 / 0.37 / 0.40 / 0.41 / 0.75 / 0.11	0.45	0 of 18
Q27M R34N W56H S62D	-0.11 / -0.03 / -0.08 / -0.12 / -0.19 / 0.13	-0.07	1 of 18 (3.17)
S26Q S28G W56G T59Q	0.31 / 0.36 / 0.13 / 0.35 / 0.24 / 0.29	0.28	0 of 18
S25V Q27G V29Y Y31L W56E	-0.33 / -0.36 / -0.45 / -0.62 / -0.50 / -0.32	-0.43	1 of 18 (3.05)
S25Q S28G W56G S103D	1.67 / 1.32 / 0.89 / 1.24 / 1.05 / 1.76	1.32	0 of 18

Reference: Li et al. 2023, doi:10.1038/s41467-023-39022-2. File: FLAb, binding data.